# Experimental data published in ChEMBL document CHEMBL1124123, “Graphics computer-aided receptor mapping as a predictive tool for drug design: development of potent, selective, and stereospecific ligands for the 5-HT1A receptor” (J Med Chem, 1988).
# Chains of the proteins cited; added tags and fusions are not shown. Lines headed by an entry give the natural chain unless they say otherwise; changes in a name come on top.
# UniProt P30994: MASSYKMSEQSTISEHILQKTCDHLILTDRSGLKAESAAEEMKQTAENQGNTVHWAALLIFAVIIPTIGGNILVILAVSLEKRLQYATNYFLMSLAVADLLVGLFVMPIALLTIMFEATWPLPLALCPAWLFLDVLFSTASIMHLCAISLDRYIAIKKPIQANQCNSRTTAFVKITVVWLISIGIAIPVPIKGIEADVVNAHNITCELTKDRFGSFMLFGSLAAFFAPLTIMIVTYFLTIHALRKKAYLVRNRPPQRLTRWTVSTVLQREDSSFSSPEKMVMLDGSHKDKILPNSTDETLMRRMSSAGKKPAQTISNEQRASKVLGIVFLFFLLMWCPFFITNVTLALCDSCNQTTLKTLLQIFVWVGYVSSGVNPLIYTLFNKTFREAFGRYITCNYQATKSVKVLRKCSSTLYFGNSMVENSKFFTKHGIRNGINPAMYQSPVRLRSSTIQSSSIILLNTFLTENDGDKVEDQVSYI
# UniProt P08909: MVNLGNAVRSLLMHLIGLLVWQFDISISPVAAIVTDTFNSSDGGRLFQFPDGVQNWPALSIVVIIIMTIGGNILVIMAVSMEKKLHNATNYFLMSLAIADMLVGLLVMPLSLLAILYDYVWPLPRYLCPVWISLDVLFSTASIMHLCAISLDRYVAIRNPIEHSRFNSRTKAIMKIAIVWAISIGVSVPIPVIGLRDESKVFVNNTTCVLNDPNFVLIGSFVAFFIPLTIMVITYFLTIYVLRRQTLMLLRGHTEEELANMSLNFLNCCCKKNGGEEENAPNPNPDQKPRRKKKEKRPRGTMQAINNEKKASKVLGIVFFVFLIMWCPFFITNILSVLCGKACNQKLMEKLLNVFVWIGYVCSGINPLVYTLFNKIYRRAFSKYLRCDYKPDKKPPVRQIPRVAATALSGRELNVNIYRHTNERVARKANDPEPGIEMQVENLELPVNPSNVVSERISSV
# UniProt P14842: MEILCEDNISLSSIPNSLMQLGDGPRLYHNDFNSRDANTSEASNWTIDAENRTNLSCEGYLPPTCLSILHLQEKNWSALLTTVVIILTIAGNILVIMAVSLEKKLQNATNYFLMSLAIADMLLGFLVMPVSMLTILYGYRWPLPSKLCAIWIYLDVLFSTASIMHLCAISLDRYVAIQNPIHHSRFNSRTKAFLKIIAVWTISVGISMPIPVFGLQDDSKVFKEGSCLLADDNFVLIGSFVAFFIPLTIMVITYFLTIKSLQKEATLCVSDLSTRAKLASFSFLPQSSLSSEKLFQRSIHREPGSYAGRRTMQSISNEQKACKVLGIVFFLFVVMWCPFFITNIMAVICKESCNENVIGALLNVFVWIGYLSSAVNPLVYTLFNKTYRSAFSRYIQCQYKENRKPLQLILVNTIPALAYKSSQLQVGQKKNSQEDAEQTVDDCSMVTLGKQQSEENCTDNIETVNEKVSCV
# Biological target: Serotonin 2 (5-HT2) receptor (Rattus norvegicus, UniProt P30994+P08909+P14842)
structure (smiles),measurement,value
O=C(CCCN1CCC2(CC1)C(=O)NCN2c1ccccc1)c1ccc(F)cc1 [SPIPERONE],Log IC50,-8.67
